## Antibody variant affinities, Ab-14 light chain, assay B

The measurements come from Li et al. 2023 (doi:10.1038/s41467-023-39022-2) through the FLAb antibody collection.

Target: peptide PDVDLGDISGINAS, taken from heptad repeat 2 (HR2) of SARS-CoV-2 spike.

Each scFv is VH, a 15-residue (Gly4Ser)3 linker, VL, as in the parent Ab-14, and differs from it in the CDRs of the light chain only.
VH: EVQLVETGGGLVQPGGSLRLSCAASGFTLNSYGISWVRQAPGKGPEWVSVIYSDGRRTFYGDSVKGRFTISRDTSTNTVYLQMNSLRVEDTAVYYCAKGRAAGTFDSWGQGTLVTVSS
VL: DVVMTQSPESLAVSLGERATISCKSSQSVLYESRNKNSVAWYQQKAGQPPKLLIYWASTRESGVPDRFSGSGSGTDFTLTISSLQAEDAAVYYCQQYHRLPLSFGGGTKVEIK

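This is the validation round: designs drawn from the data on random variants, tested in the same kind of assay. Their group label is 14L_GP_Gibbs (GP: Gaussian process model; Gibbs: Gibbs sampling; a sequence that several methods proposed may carry one label only). In AlphaSeq, yeast of one mating type display the scFv and yeast of the other type display the target. After mating in shaken culture at 30 °C for 16 h, diploids were selected and their barcode pairs sequenced. Each replicate has its own calibration line, from reference interactions of the BCL2 family. Mating was done six times.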

Sequences are complete VL domains. Values are log10 of the apparent Kd in nM; lower means stronger binding. Empty control strains, which show no peptide, gave a signal in 4% of pairings with all light chain designs; the median was 2.64 and 95% of these signals were weaker than 1.59. No background was subtracted. For each scFv, signals with the empty controls are counted beside the result.

The variant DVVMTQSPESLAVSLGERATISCKMSESELYEDRNQNSVAWYQQKAGQPPKLLIYSASQRLEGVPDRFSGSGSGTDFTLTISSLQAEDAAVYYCQQYHRLPLSFGGGTKVEIK gave 0.15, 0.02, -0.25, -0.08, -0.12, 0.19 (controls 0 of 18).
The variant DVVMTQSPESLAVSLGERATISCKVDQWEPYGSRNKNSVAWYQQKAGQPPKLLIYSASQRCSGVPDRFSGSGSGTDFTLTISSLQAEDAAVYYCQQYHRLPLSFGGGTKVEIK gave 0.42, 0.28, 0.41, 0.42, 0.47, 0.89 (controls 2 of 18).
The variant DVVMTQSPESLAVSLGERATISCKVSISEPYEERNKNSVAWYQQKAGQPPKLLIYNASVRMSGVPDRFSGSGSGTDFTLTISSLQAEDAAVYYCQQYHRLPLSFGGGTKVEIK gave 0.03, -0.04, 0.09, -0.23, 0.02, -0.03 (controls 2 of 18).
The variant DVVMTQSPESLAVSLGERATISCKLQQSQEYESRNKNSVAWYQQKAGQPPKLLIYDASQRLVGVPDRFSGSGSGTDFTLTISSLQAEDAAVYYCQQYHRLPLSFGGGTKVEIK gave 0.16, -0.16, -0.04, 0.00, -0.14, 0.80 (controls 0 of 18).
The variant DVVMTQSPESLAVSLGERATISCKVEQGVDDESRNDNSVAWYQQKAGQPPKLLIYWASTRESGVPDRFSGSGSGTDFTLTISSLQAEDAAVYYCQQYHRLPLSFGGGTKVEIK gave 1.34, 0.55, 0.66, 1.55, 1.31, 1.28 (controls 0 of 18).
The variant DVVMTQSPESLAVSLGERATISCKLMEGDLYESRNKNSVAWYQQKAGQPPKLLIYNASKRLEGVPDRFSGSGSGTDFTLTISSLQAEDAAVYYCQQYHRLPLSFGGGTKVEIK gave -0.24, -0.24, -0.39, -0.42, -0.37, -0.29 (controls 2 of 18).
The variant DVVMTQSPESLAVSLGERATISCKMSGEDMMLSRNWNSVAWYQQKAGQPPKLLIYQASTREQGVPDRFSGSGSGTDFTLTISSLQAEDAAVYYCQQYHRLPLSFGGGTKVEIK gave 0.58, 0.49, 0.97, 0.32, 0.21, 1.13 (controls 0 of 18).
The variant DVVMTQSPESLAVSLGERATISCKLQQSEEYESRQFNSVAWYQQKAGQPPKLLIYEASQRNLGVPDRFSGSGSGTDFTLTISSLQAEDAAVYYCQQYHRLPLSFGGGTKVEIK gave 2.16, 1.10, 1.36, 1.04, 0.87, 1.14 (controls 1 of 18).
The variant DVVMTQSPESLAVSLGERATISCKMAQGWGYESRNANNVAWYQQKAGQPPKLLIYNASQRESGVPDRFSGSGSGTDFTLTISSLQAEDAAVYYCQQYHRLPLSFGGGTKVEIK gave 0.02, -0.10, -0.18, -0.43, -0.03, 0.30 (controls 0 of 18).
The variant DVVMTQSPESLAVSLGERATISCKLQQSWLYLSRNHNAVAWYQQKAGQPPKLLIYHASQRCSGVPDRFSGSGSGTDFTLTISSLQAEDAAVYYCQDYHRLPLSFGGGTKVEIK gave 0.98, 0.83, 0.96, 0.73, 1.25, 1.02 (controls 0 of 18).
The variant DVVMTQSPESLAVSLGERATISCKVSESELYESRWKNSVAWYQQKAGQPPKLLIYNASYRESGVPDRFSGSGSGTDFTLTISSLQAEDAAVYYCQQYHRLPLSFGGGTKVEIK gave 0.45, 0.29, 0.25, 0.25, 0.20, 0.24 (controls 2 of 18).
The variant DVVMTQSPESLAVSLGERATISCKLMQGWLYESRNKNSVAWYQQKAGQPPKLLIYNASKRLEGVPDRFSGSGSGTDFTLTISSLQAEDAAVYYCQQYHRLPLSFGGGTKVEIK gave 0.76, 0.26, 0.45, 0.22, 0.40, 0.40 (controls 0 of 18).
The variant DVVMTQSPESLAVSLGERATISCKHSPSVEYESRDKNSVAWYQQKAGQPPKLLIYMASTRMSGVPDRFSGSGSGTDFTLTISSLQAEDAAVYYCQQYHRLPLSFGGGTKVEIK gave 0.68, 0.39, 0.74, 0.38, 0.68, 0.77 (controls 0 of 18).
The variant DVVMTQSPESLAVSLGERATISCKVQQSVLYGDRNKNSVAWYQQKAGQPPKLLIYHGSTRSSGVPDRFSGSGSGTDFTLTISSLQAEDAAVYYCQDYHRLPLSFGGGTKVEIK gave 1.08, 0.67, 0.53, 0.79, 0.72, 0.74 (controls 1 of 18).
The variant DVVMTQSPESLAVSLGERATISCKLQMSEEYESRNKNSVAWYQQKAGQPPKLLIYMASTRCDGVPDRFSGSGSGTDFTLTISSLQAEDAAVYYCQQYHRLPLSFGGGTKVEIK gave 0.23, 0.32, 0.11, 0.04, 0.14, 0.46 (controls 1 of 18).
The variant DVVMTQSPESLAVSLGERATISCFLSQSVLYEERLDNSVAWYQQKAGQPPKLLIYNASQRCSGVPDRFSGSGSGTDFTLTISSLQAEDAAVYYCQQYHRLPLSFGGGTKVEIK gave 0.75, 0.42, 0.65, 0.40, 0.59, 1.21 (controls 1 of 18).
The variant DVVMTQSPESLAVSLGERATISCKLRWSMLYEDRNKNSVAWYQQKAGQPPKLLIYNASQRCSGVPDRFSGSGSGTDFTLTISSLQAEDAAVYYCQQYHRLPLSFGGGTKVEIK gave 0.20, -0.14, 0.13, -0.14, -0.28, -0.13 (controls 0 of 18).
The variant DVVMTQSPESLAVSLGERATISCKSSGSVLYEDKNVNSVAWYQQKAGQPPKLLIYDASQRCSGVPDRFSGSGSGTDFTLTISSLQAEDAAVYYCQQYHRLPLSFGGGTKVEIK gave 0.31, 0.38, 0.39, 0.28, 0.56, 0.36 (controls 1 of 18).
The variant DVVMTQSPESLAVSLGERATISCKVDSSVNYGQRNKNSVAWYQQKAGQPPKLLIYDASQRESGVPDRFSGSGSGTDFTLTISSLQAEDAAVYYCQQYHRLPLSFGGGTKVEIK gave -0.10, -0.10, -0.10, -0.24, -0.09, -0.05 (controls 2 of 18).

Extract of 2 entries:

{"VL": "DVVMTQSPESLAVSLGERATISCKMSESELYEDRNQNSVAWYQQKAGQPPKLLIYSASQRLEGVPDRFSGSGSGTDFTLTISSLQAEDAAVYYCQQYHRLPLSFGGGTKVEIK", "log10 Kd (nM) by replicate": "0.15, 0.02, -0.25, -0.08, -0.12, 0.19", "control signals": "0 of 18"}
{"VL": "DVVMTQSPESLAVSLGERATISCKVEQGVDDESRNDNSVAWYQQKAGQPPKLLIYWASTRESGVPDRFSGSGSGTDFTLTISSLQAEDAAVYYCQQYHRLPLSFGGGTKVEIK", "log10 Kd (nM) by replicate": "1.34, 0.55, 0.66, 1.55, 1.31, 1.28", "control signals": "0 of 18"}

In the paper, a design with two or fewer of six values counts as a poor binder. The range of this assay differs from that of the first round, and the authors advise against merging the two. The parent sequence was in this pool as ten entries: three were never detected, three once, and four in most replicates, with averages from 0.34 to 2.37.